{
  "sequences": {"note": "Amino acid sequences for entries named in this document (tags omitted).", "UniProt P11712, whole entry": "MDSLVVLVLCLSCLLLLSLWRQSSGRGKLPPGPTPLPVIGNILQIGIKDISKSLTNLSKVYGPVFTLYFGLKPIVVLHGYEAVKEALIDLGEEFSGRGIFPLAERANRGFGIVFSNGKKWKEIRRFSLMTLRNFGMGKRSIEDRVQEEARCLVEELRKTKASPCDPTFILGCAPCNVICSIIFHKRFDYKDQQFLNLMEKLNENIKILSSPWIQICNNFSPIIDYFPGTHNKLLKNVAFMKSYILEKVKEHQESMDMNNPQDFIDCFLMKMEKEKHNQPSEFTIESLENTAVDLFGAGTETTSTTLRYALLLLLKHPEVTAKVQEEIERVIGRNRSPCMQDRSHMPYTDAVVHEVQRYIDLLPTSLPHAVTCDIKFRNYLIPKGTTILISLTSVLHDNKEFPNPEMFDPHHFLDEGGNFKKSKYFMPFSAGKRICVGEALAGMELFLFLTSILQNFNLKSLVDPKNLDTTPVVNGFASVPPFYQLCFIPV"},
  "source": "PubChem BioAssay AID777",
  "about": "(Sanford-Burnham Center for Chemical Genomics, 2007)",
  "note": "Only a part is listed here, and it is no random draw. Some of these compounds have results that are not shown, active ones among them. The source made the active and inactive calls.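 The calls were made as follows: active = blocking of liver enzyme CYP2C9 beyond about 50% at 5 µM (limit read from the data); inactive = the rest.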",
  "data": [
    {"biological_target": "Cytochrome P450 2C9 (Homo sapiens) (UniProt P11712)", "assay": "blockers of cytochrome P450 2C9 activity – biochemical, luminescence, ADME assay, primary screen (AID 777)", "settings": "CYP2C9 Supersomes, luciferin-H conversion, at 5 µM, hits give high values", "values": [
      {"smiles": "CC(C)N1C(=O)CC2(CCN(CCOC(=O)C(O)(c3ccccc3)c3ccccc3)CC2)C1=O", "inhibition": "inactive: -5.3%"},
      {"smiles": "CN(C)c1cccc(C(=O)NCC2(N(C)C)CCCCC2)c1", "inhibition": "inactive: -5.6%"},
      {"smiles": "O=C(OC1CN2CCC1CC2)C(CO)(c1ccccc1)c1ccccc1", "note": "(stereo not drawn)", "inhibition": "inactive: 8.1%"}
    ]}
  ]
}
